{"source": "IntAct's records for PubMed 25477193", "biological_target": "kap0_human PRKAR1A (UniProt P10644)"}
{"substance": "cAMP-dependent protein kinase catalytic subunit alpha (Homo sapiens) (from UniProt P17612) L206R", "values": [{"measurement": "effect of a mutation on the interaction", "value": "disrupting interaction strength"}]}
